# Ab-14 light chain CDR variants: yeast mating affinities

Source: Engelhart et al. 2022 (doi:10.1038/s41597-022-01779-4), MIT Lincoln Laboratory and A-Alpha Bio; data file from the FLAb repository.

Target peptide (SARS-CoV-2 spike, HR2 region): PDVDLGDISGINAS

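The library (AAYL50) carries one to three amino acid substitutions per variant, with no insertions or deletions. AlphaSeq pools MATa yeast showing the antibodies with MATalpha yeast showing the peptide. Mating (16 h, 30 °C) was followed by selection of diploids and sequencing of their barcodes. A regression on co-assayed BCL2-family reference pairs converts the normalised counts of each replicate to an apparent Kd. Mating was done three times.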

Parent scFv Ab-14: VH joined to VL by a (GGGGS)3 linker. Changes lie in the light chain CDRs alone.
VH: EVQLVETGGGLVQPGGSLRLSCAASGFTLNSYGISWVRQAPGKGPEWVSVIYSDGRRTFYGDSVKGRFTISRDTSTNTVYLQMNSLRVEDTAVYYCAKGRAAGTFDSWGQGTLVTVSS
VL: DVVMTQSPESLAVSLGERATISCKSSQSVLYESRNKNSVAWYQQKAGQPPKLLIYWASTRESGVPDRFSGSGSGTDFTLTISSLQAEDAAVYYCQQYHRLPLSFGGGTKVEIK

Each variant is given by its three light chain CDRs, as the data file delimits them; those of the parent are KSSQSVLYESRNKNSVA, WASTRES, QQYHRLPLS. Values are apparent Kd, the geometric mean of the replicates that gave a signal; lower means stronger binding. "nd" marks a missing value. The strain was present, yet no cells mated with the target were sequenced in any replicate, which points to weak or no binding.

4.2 µM (1 of 3 replicates; controls 0 of 9) for KQSQSVLYESRNKNSVA / VASTREL / QQYHRLPLS.
590 nM (1 of 3 replicates; controls 0 of 9) for KSSQSVLWESRNWNFVA / WASTRES / QQYHRLPLS.
33 nM (3 of 3 replicates; controls 4 of 9) for KSSQSVLYESRNQNSVA / WAGTRDS / QQYHRLPLS.
17 µM (1 of 3 replicates; controls 7 of 9) for KSSQSVLYCSRCKNSVA / WASTRES / KQYHRLPLS.
85 nM (3 of 3 replicates; controls 1 of 9) for LSSQSLLYESRNKNSVA / WASTRES / QQYRRLPLS.
nd (0 of 3 replicates; controls 0 of 9) for KSSQTVLYESRNKNSVA / WGSTRES / QQYHRLRLS.
nd (0 of 3 replicates; controls 0 of 9) for KISQSVLYESRNKNSVA / WWSTRES / QQYHRDPLS.
88 nM (3 of 3 replicates; controls 1 of 9) for KSLQSVLYEPRNKNSLA / WASTRES / QQYHRLPLS.
190 nM (1 of 3 replicates; controls 2 of 9) for KSSQSVLYESRDKNSVA / WASTRES / QQHHRLPIS.
350 nM (3 of 3 replicates; controls 1 of 9) for KSSQSVLYEMRNKNSVA / WASTRES / QQYHTLPLL.
93 nM (3 of 3 replicates; controls 1 of 9) for KSSQSVLYESRNKFSVA / LASTRES / QQYHRLPLS.
4.4 µM (1 of 3 replicates; controls 2 of 9) for KSSQSVMYESRNKNSVA / WASTREQ / QQYHRLPRS.
34 µM (2 of 3 replicates; controls 4 of 9) for KSSQSVLYESRNKNSVA / WASDRES / QQADRLPLS.
21 µM (2 of 3 replicates; controls 0 of 9) for KSSQSVLYESRNFNSVA / WASTRES / QQYHALPLF.
100 nM (3 of 3 replicates; controls 3 of 9) for LSSQRVLYESRNKNSVA / WASTRES / QQYHRLPKS.
3.1 µM (3 of 3 replicates; controls 3 of 9) for KSSQSVLYESRNKNSVA / WASTREV / MQYHCLPLS.
31 nM (3 of 3 replicates; controls 2 of 9) for KSIQSVCYENRNKNSVA / WASTRES / QQYHRLPLS.
21 nM (3 of 3 replicates; controls 2 of 9) for KSSWSVLYNTRNKNSVA / WASTRES / QQYHRLPLS.
nd (0 of 3 replicates; controls 0 of 9) for KSSQSVLYESSNKNSGA / WASTRES / QQYHRLNLS.
4.9 µM (1 of 3 replicates; controls 3 of 9) for KSSQSVLYESRNKNSVA / WESTRES / QQYHRLFLS.
31 nM (3 of 3 replicates; controls 1 of 9) for KSSQSVLYESRNKNSVA / WASTRER / QQYHPLPLS.
5.0 nM (3 of 3 replicates; controls 3 of 9) for KSSQSVLYESRNKGAVA / WASTREN / QQYHRLPLS.
nd (0 of 3 replicates; controls 0 of 9) for KSSQSVLYESRNKNSVF / YASTRES / QQYQRLPLS.
23 nM (3 of 3 replicates; controls 0 of 9) for KSSQKVKYESRNKNSVA / WASTRES / QQYHRLPLC.
260 µM (1 of 3 replicates; controls 1 of 9) for KSSQSVLYESRNQNSVA / WASPRES / QQYHRLPLS.
62 nM (3 of 3 replicates; controls 1 of 9) for CSDQSVLYESRNINSVA / WASTRES / QQYHRLPLS.
11 µM (2 of 3 replicates; controls 1 of 9) for KSSQSVLPESRNKNSGA / WASTRES / QQYYRLPLS.
58 nM (3 of 3 replicates; controls 3 of 9) for RSSQSVLYESRNKNSVA / WASTTAS / QQYHRLPLS.
1.6 mM (1 of 3 replicates; controls 1 of 9) for KSSQSVLYESRNKNNDA / WASTRES / QQYHPLPLS.
4.9 µM (1 of 3 replicates; controls 4 of 9) for KSSQSVLYESRNGNSVA / WASTRES / NQEHRLPLS.
39 µM (1 of 3 replicates; controls 1 of 9) for KSSQSVLYENRNKRSVA / WASTRES / QQYHRQPLS.
190 nM (3 of 3 replicates; controls 1 of 9) for KSSQLVLYESRNKNSVA / WASTRES / QQYHRWYLS.
62 nM (3 of 3 replicates; controls 2 of 9) for KSSQSVLYESRNMNSVA / WDSTRES / QQYHRLPNS.
20 nM (3 of 3 replicates; controls 6 of 9) for KSSQSVEYESPNKNGVA / WASTRES / QQYHRLPLS.
5.0 nM (3 of 3 replicates; controls 1 of 9) for KSSESVLYEARNKNPVA / WASTRES / QQYHRLPLS.
200 nM (3 of 3 replicates; controls 0 of 9) for KSSQSRLYESLNKNSVA / WASFRES / QQYHRLPLS.
100 µM (2 of 3 replicates; controls 3 of 9) for KSVQSVLYESRNWNSVA / WASTRES / QQSHRLPLS.
nd (0 of 3 replicates; controls 1 of 9) for KNSQSVLYESRNKNSVV / RASTRES / QQYHRLPLS.
13 nM (3 of 3 replicates; controls 0 of 9) for KSSNSVLYEHRNKNSVA / WASTRES / QQYHRLPLC.
nd (0 of 3 replicates; controls 1 of 9) for KSTQSVRYESRNKNSVP / WASTRES / QQYHRLPLS.
36 nM (3 of 3 replicates; controls 3 of 9) for KSSHSVLYESRNKNSVA / WASTRLS / QQYHRLSLS.
9.6 nM (3 of 3 replicates; controls 5 of 9) for KSFQAVSYESRNKNSVA / WASTRES / QQYHRLPLS.
18 µM (1 of 3 replicates; controls 2 of 9) for KSSQSVLYESRNKNSVW / WSSTRES / QQYHTLPLS.

For reference, 3 entries of the list once more:

With KSSQSVLYESRNKNSVW / WSSTRES / QQYHTLPLS the result was 18 µM (1 of 3 replicates; controls 2 of 9).
With KSSQLVLYESRNKNSVA / WASTRES / QQYHRWYLS the result was 190 nM (3 of 3 replicates; controls 1 of 9).
With RSSQSVLYESRNKNSVA / WASTTAS / QQYHRLPLS the result was 58 nM (3 of 3 replicates; controls 3 of 9).

As a blank, each scFv also met three strains without target: over library AAYL50, 18% of these pairings were detected, typically at 15 µM and seldom below 970 nM. The control count says in how many pairings with the empty strains this scFv gave a signal.